According to patent publication US6790862B2 (priority 1999, dated 2004):

System: b-tubulin in HL-60 cells
Experiment: in situ tubulin polymerization, immunoblot of soluble and particulate fractions
Format: cell-based, human
Conditions: HL-60, different concentrations, 5 h
Excerpt: A simple in situ cellular assay as described by Giannakakou P., Gussio R., Nogales E., Downing K. H., Zaharevitz D., Bollbuck B., Poy G., Sackett D., Nicolaou K. C., Fojo T., Proc. Nat. Acad. Sci. (USA) (2000), 97, 2904-2909 was used in which the shift in tubulin from depolymerized to polymerized forms was followed by electrophoresis and Western blotting of centrifuged particulate and cytosolic fractions. To summarize, 2×10^6 untreated and drug-exposed HL-60 cells were lysed by exposure for 5 min at 37° C. to […] of hypotonic buffer (1 mM MgCl2, 2 mM EGTA, 1% Nonidet P-40, 2 mM phenylmethylsulfonyl fluoride, 1 mg/mL aprotinin, 2 mg/mL pepstatin, and 20 mM Tris-HCl, pH 6.8) and the particulate fraction separated from the soluble cytosolic fraction by high speed centrifugation for 10 min in a bench-top centrifuge. Samples labeled ‘0 min’ received drug immediately before collection of the cells. The processing of the cells to the critical centrifugation step required approximately 30 min. The pellet was dissolved in […] of sample buffer (8 M urea, 4% CHAPS, 3 M thiourea, and 40 mM DTT). Twenty mL of loading buffer was added to each […] sample, the samples were vortexed and then boiled for 5 min. […]

Structure (SMILES): COc1cc2c(c(OC)c1OC)-c1ccc(OC)c(=O)cc1[C@@H](NC(C)=O)CC2 [Colchicine, colchicine, reference compound]
- effect on proportion of soluble to polymerized tubulin: depolymerization of tubulin
